Laboratory results published in article PMC4529233, “In Silico Generation of Peptides by Replica Exchange Monte Carlo: Docking-Based Optimization of Maltose-Binding-Protein Ligands” (PLoS ONE, 2015).

Experiments:
MBP [1] = biological target: T1, MBP (Escherichia coli, UniProt P0AEX9); assay: Surface Plasmon Resonance, immobilized MBP, peptides as analytes; type: binding
T1 construct: made in house; host or cells: E. coli BL21(DE3)
Experimental: SPR was employed to evaluate the affinities of designed peptides towards the MBP protein. SPR experiments were carried out by immobilizing MBP on a CM5 chip with an immobilization level of 4900 RU, while peptides were employed as analytes.
The interactions between the protein and computationally optimized peptides were measured using the BIAcore 3000 (GE Healthcare Milano, Italy). MBP was immobilized at a concentration of 100 μg/mL in 10 mM acetate buffer pH 5 (flow rate 5 μL/min, time injection 7 min) on a CM5 Biacore sensor chip, using EDC/NHS chemistry following the manufacturer’s instructions. Residual reactive groups were deactivated by treatment with 1 M ethanolamine hydrochloride, pH 8.5. The reference channel was activated with EDC/NHS and deactivated with ethanolamine. The binding assays were carried out at 20 μL /min at 25°C, with 4.5 min contact-time. Peptides were diluted in the HBS running buffer (10 mM Hepes, 150 mM NaCl, 3 mM EDTA, pH 7.4). Analyte injections were performed at the indicated concentrations. The sensor surface was regenerated by using 1–3 washes of 10mM NaOH for 1 minute. The association phase (kon) was followed for 250s, whereas the dissociation phase (koff) was followed for 300 s. The instrument BIAevaluation analysis package (version 4.1, GE Healthcare, Milano, Italy) was used to subtract the signal of the reference channel. Conversely, an affinity steady state model was applied to fit the RUmax data versus peptides concentrations and fitting was performed with GraphPad Prism v4.00 using the one-site binding equation [53, 54].

MBP [2] = biological target: T1, MBP; assay: Tryptophan fluorescence quenching binding analysis; settings: 1:1 model, MBP 14 μM, 25.0°C; read-out: KD (tryptophan fluorescence quenching at 333 nm)
Experimental: In this experiment the peptide concentration was twofold greater than KD, thus MBP protein was nearly saturated and consequently the signal decrease resulted from peptide displacement.
The data were acquired at 25.0°C, using an excitation wavelength of 298.0 nm and a fluorescence emission wavelength ranging from 300 to 400 nm. The acquisition parameters were set as follows: excitation and emission slits at 5 nm; 120 nm/min scan rate; 1.00 nm data interval averaging time at 0.500 s, PMT voltage at “high”. The fluorescence values recorded at 333 nm were extracted, and transformed to -Δfluorescence which was obtained by subtracting them to the emission fluorescence intensity of the ligand-free protein, and, then, plotted against the peptide concentration. […] Experiments were carried out in duplicates. A control assay was carried out employing as titrant the buffer to assess that the dilution effect was under 3%, not affecting the results.

[3] = steady state, saturated signals, read-out: KD (SPR, fitting of RUmax values vs peptides concentrations)

SMILES	Kd (MBP [1]; [3]) [µM]	Kd (MBP [1]; immobilized MBP on CM5 chip, 25°C, HBS pH 7.4, read-out: KD (SPR determined)) [µM]	Kd (MBP [2]) [µM]
C[C@H](NC(=O)[C@@H]1CCCN1C(=O)[C@@H](N)CO)C(=O)NCC(=O)NCC(=O)N[C@@H](CCC(N)=O)C(=O)N[C@@H](CC(=O)O)C(=O)N[C@@H](Cc1ccccc1)C(N)=O [MBP-1]	4200 ± 1400	–	–
C[C@H](N)C(=O)N1CCC[C@H]1C(=O)N[C@@H](CCCNC(=N)N)C(=O)NCC(=O)NCC(=O)N[C@@H](CC(N)=O)C(=O)N[C@H](C(=O)N[C@@H](CO)C(N)=O)[C@@H](C)O [MBP-3]	1500 ± 200	–	–
CSCC[C@H](NC(=O)CNC(=O)CNC(=O)[C@H](CCCCN)NC(=O)[C@H](CCC(N)=O)NC(=O)[C@@H]1CCCN1)C(=O)N[C@@H](Cc1c[nH]c2ccccc12)C(=O)N[C@@H](CC(=O)O)C(N)=O [MBP-6]	1300 ± 500	–	–
N=C(N)NCCC[C@H](NC(=O)[C@H](Cc1ccccc1)NC(=O)[C@H](Cc1ccc(O)cc1)NC(=O)[C@@H]1CCCN1C(=O)[C@H](Cc1ccccc1)NC(=O)[C@H](Cc1c[nH]cn1)NC(=O)[C@@H](N)Cc1ccc(O)cc1)C(=O)N[C@@H](Cc1ccccc1)C(N)=O [MBP-9]	–	72 ± 3	65 ± 10
